Measured values: the DeepSol protein solubility set

Test: soluble on expression in E. coli; label from the status in PepcDB or PDB records

Row | Sequence | soluble on expression in E. coli
1 | MQGSVTEFLKPRLVDIEQVSSTHAKVTLEPLERGFGHTLGNALRAILLSSMPGCAVTEVEIDGVLHEYSTKEGVQEDILEILLNLKGLAVRVQGKDEVILTLNKSGIGPVTAADITHDGDVEIVKPQHVICHLTDENASISMRIKVQRGRGYVPASTRIHSEEDERPIGRLLVDACYSPVERIAYNVEAARVEQRTDLDKLVIEMETNGTIDPEEAIRRAATILAEQLEAFVDLR | soluble
2 | MGHHHHHHSHMTSFQEVPLQTSNFAHVIFQNVAKSYLPNAHLECHYTLTPYIHPHPKDWVGIFKVGWSTARDYYTFLWSPMPEHYVEGSTVNCVLAFQGYYLPNDDGEFYQFCYVTHKGEIRGASTPFQFRASSPVEELLTMEDEGNSDMLVVTTKAGLLE | soluble
